Experimental data from PubChem BioAssay AID588850 (Sanford-Burnham Center for Chemical Genomics, 2011).
The list shows a part of the results, in another mix than the full data. Some of these compounds have results that are not shown, active ones among them. Active and inactive are the calls of the source.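 The calls were made as follows: active = at least 50% inhibition at 5 µM, scaled per plate between neutral and stimulator controls; inactive = the rest.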

Test: NF-kB reporter blockers in CF airway cells – cell-based, GFP fluorescence, uHTS, primary screen (AID 588850);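 also: PAF is a Pseudomonas aeruginosa culture filtrate used as stimulus; plate controls were PAF-stimulated DMSO wells for no effect and unstimulated DMSO wells for full effect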
Settings: KKLEB NF-kB-GFP reporter, PAF-induced, GFP fluorescence overnight; at 5 µM; active compounds read high

SMILES | inhibition
COc1cc(C(=O)NCC2(N(C)C)CCCCC2)c([N+](=O)[O-])cc1OC | inactive: 1.3%
CN(C)C1(CNC(=O)c2ccc(Br)cc2)CCCCC1 | inactive: -6.3%
O=C(NCC1(N2CCCCC2)CCCCC1)c1cccc(Cl)c1 | inactive: -12.6%
COc1ccc(Cl)cc1C(=O)NCC1(N(C)C)CCCCC1 | inactive: 4.9%
COc1cccc(C(=O)NCC2(N3CCCCC3)CCCCC2)c1 | inactive: -4.3%
O=C(OC1CN2CCC1CC2)C(CO)(c1ccccc1)c1ccccc1 (stereo unspecified) | inactive: 5.3%
O=C(OCCN1CCCC1)C(O)(c1ccccc1)c1ccccc1 | inactive: 6.2%
CC(C)Oc1ccc(C(=O)NCC2(N(C)C)CCCCC2)cc1 | inactive: -1%
CN(C)c1cccc(C(=O)NCC2(N(C)C)CCCCC2)c1 | inactive: -8.4%
C=C(C)C#CC(O)(C(=O)OC1CCN(C)CC1)c1ccccc1 (stereo unspecified) | inactive: -4.6%
COc1ccc(Br)c(C(=O)NCC2(N3CCCCC3)CCCCC2)c1 | inactive: -5.1%
CN1[C@@H]2CC[C@H]1CC(OC(=O)C(O)(c1ccccc1)c1ccccc1)C2 (stereo partly specified) | inactive: -16.6%
O=C(NCC1(N2CCCCC2)CCCCC1)c1cc([N+](=O)[O-])ccc1Cl | inactive: -1.1%
Cc1ccc(C(=O)NCC2(N3CCCCC3)CCCCC2)cc1 | inactive: 4.6%
COc1cc(SC)ccc1C(=O)NCC1(N(C)C)CCCCC1 | inactive: -14.8%
CCN(CC)CC(C)C(C)OC(=O)C(O)(c1ccccc1)c1ccccc1 (stereo unspecified) | inactive: 11.6%
CC(C)N1C(=O)CC2(CCN(CCOC(=O)C(O)(c3ccccc3)c3ccccc3)CC2)C1=O | inactive: -7.4%
CN(C)c1ccc(C(=O)NCC2(N(C)C)CCCCC2)cc1 | inactive: 3.1%
CN(C)C1CCCC1OC(=O)C(O)(c1ccccc1)c1ccccc1 (stereo unspecified) | inactive: -6.5%
Cc1ccccc1C(=O)NCC1(N2CCCCC2)CCCCC1 | inactive: 10.6%
COc1ccc(C(=O)NCC2(N(C)C)CCCCC2)cc1 | inactive: -18.1%
O=C(NCC1(N2CCCCC2)CCCCC1)c1cccc(Br)c1 | inactive: 8.6%
CCN1CCCC(OC(=O)C2(O)c3ccccc3C=Cc3ccccc32)C1 (stereo unspecified) | inactive: 4.6%
Cc1cc(C(=O)NCC2(N3CCCCC3)CCCCC2)ccc1[N+](=O)[O-] | inactive: 0.1%
O=C(NCC1(N2CCCCC2)CCCCC1)c1cc(F)c(F)cc1Cl | inactive: 6.7%
C=CCN1CCN(CCOC(=O)C(O)(c2ccccc2)c2ccccc2)CC1 | inactive: -10.7%
